Structures are written as SMILES. The entries are a selection whose mix differs from that of the whole data set. Activity calls are given as the source filed them. Calls follow the shape of the dose curve; as a rule, active = well fitted inhibition curve with a large enough effect; inconclusive = small, poorly fitted or top-dose-only effect; inactive = no such curve, though single readings can be large or run the other way.

By UniProt entry, the sequences of proteins in these tests, tags left out. Where a name states a change or a piece, a line headed by the entry shows the natural chain unless it says otherwise.
UniProt P17405: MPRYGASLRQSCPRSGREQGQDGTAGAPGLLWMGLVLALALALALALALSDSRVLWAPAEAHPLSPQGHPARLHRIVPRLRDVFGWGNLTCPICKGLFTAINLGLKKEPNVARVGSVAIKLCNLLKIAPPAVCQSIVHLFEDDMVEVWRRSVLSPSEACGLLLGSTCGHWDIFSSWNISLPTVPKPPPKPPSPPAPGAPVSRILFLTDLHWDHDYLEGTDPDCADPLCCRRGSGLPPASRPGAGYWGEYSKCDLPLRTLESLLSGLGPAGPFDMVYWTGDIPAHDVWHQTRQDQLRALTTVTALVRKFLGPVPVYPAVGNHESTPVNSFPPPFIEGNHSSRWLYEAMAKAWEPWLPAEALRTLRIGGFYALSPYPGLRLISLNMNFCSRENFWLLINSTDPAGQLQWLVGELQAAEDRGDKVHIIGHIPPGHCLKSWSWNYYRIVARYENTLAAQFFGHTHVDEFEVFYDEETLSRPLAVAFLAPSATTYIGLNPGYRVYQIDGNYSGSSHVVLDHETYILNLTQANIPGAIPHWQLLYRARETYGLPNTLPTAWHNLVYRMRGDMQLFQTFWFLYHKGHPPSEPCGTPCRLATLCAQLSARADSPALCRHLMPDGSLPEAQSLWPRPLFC

The target in this assay is Sphingomyelin phosphodiesterase (Homo sapiens) (UniProt P17405). Briefly: Inhibitors of Secretory Acid Sphingomyelinase (S-ASM): qHTS. The following applies: placental ASM, HMU-PC fluorogenic substrate (series up to 57.5 µM), 60 min; at 57.5 µM (top of the series). A general note: qHTS replaces the single test concentration by a dilution series.
On to `CS(=O)(=O)c1cc([N+](=O)[O-])c2no[n+]([O-])c2c1`, for which the activity change, negative = inhibition was inactive: -1.87%.

`O=P(Nc1nccs1)(Oc1ccccc1)Oc1ccccc1`: the activity change, negative = inhibition was inactive: -2.19%. With `O=P(Nc1nccs1)(c1ccccc1)c1nc2ccccc2s1` (stereo unspecified), the activity change, negative = inhibition is inactive: -9.02%. Regarding `CCOP1(=S)c2c(C)nn(CCC#N)c2N=C(c2ccccc2F)N1C` (stereo unspecified), the activity change, negative = inhibition was inactive: 6.84%.

On to `O=C(O)COc1ccc([As](=O)(O)O)cc1[N+](=O)[O-]`, for which the activity change, negative = inhibition is inactive: -2.1%. `Nc1ccccc1[As](=O)(O)c1ccccc1`: the activity change, negative = inhibition is inactive: 1.22%. For the molecule `NC(=O)Nc1ccc([As](=O)(O)O)cc1`, the activity change, negative = inhibition is inactive: -4.6%. Regarding `CN(C(=O)Cc1ccc(Cl)c(Cl)c1)[C@H]1CC[C@@]2(CCCO2)C[C@@H]1N1CCCC1`, the activity change, negative = inhibition is inactive: 0.529%. In the case of `O=[N+]([O-])c1ccc2c(c1)nnn2O` it was inactive: -1.02%.

For the molecule `CN(C)C(=O)c1cc([N+](=O)[O-])cc2c1-c1c(cc([N+](=O)[O-])cc1[N+](=O)[O-])C2=O`, the activity change, negative = inhibition was inactive: -2.06%. `CN(C(=O)Cc1ccccc1)[C@@H]1CC[C@]2(CCCO2)C[C@H]1N1CCCC1`: the activity change, negative = inhibition is inactive: -0.526%. For the molecule `CCOP1(=S)c2c(C)nn(CCC#N)c2N=C(c2ccc(F)cc2)N1C` (stereo unspecified), the activity change, negative = inhibition is inactive: 3.1%. As for `N#CCCN(C(=O)COC(=O)C(O)(c1ccccc1)c1ccccc1)c1ccc(F)cc1`, the activity change, negative = inhibition was inactive: 8.15%. For `CS(=O)(=O)c1ccc(Cl)c(NC(=O)COC(=O)C(O)(c2ccccc2)c2ccccc2)c1`, the activity change, negative = inhibition is inactive: -7.57%.

Consider `O=[As](O)(O)c1cccnc1`, for which the activity change, negative = inhibition is inactive: -3.35%.

With `COc1cc(C(=O)NCC2(N3CCOCC3)CCCCC2)cc(Cl)c1OC(C)C`, the activity change, negative = inhibition is inactive: 2.77%. For the molecule `O=C(OC1CN2CCC1CC2)c1ccc(Cl)cc1` (stereo unspecified), the activity change, negative = inhibition is inactive: 0.0308%. With `Cc1cccc(OCC(=O)OC2CN3CCC2CC3)c1` (stereo unspecified) the figure was inactive: 1.86%; with `O=[As](O)(c1cccc(O)c1)c1cccc(O)c1`, inactive: -2.1%. With `CCCOP(=S)(Nc1nc(N)cc(=O)[nH]1)OCCC` the figure was inactive: 0.725%; with `Cc1ccc(NCCc2c([N+](=O)[O-])cc([N+](=O)[O-])cc2[N+](=O)[O-])cc1`, inactive: 0.0272%. For `CCOP(=O)(Nc1cccc2ccccc12)OCC`, the activity change, negative = inhibition is inactive: 2.36%. On to `COc1cc(C2NCCC3(OCCO3)C2(C)C)cc(OC)c1OC` (stereo unspecified), for which the activity change, negative = inhibition is inactive: 2.09%. Take `CCOP(=O)(Nc1ccc(C)cn1)OCC`: the activity change, negative = inhibition is inactive: 0.499%.

`CN(CCCl)Cc1cc(Cl)c(NC2=NCCN2)c(Cl)c1`: the activity change, negative = inhibition was inactive: -5.82%. Regarding `CCOP(=O)(NC(=NC(C)c1ccccc1)NC(C)c1ccccc1)OCC` (stereo unspecified), the activity change, negative = inhibition is inactive: -0.978%. In the case of `CCC1=CC2Cc3nc4ccc(Cl)cc4c(N)c3C(C1)C2` (stereo unspecified), the activity change, negative = inhibition is inactive: -4.83%. With `O=P1(Nc2ccccn2)COc2ccccc2OC1` the figure was inactive: -2.5%; with `CC(C)(C)C(=O)NC(Sc1ncccn1)C(Cl)(Cl)Cl` (stereo unspecified), inactive: -1.78%; with `Clc1n[nH]nc1-c1nn[nH][15n]1`, inactive: 6.35%. Consider `CC1(CBr)Cn2c(nc3ccccc3c2=O)S1` (stereo unspecified), for which the activity change, negative = inhibition was inactive: -3.76%. For `CN(C(=O)Cc1ccc(Cl)c(Cl)c1)[C@@H]1CCCC[C@H]1N1CCCC1`, the activity change, negative = inhibition is inactive: 2.86%. As to `CC(C)/C=N\N=C(\N)N[N+](=O)[O-]`, the activity change, negative = inhibition was inactive: -5.57%. Regarding `Cc1ccc(C(=O)OC2CN3CCC2CC3)cc1` (stereo unspecified), the activity change, negative = inhibition is inactive: 1.62%. On to `CC1CCC(C(C)C)C(OP(=O)(Nc2ccccn2)c2ccccc2)C1` (stereo unspecified), for which the activity change, negative = inhibition was inactive: -4.94%. Regarding `Cc1nn(-c2ccccc2)c2c1P(=O)(N1CCOCC1)N(C)C(c1ccccc1)=N2` (stereo unspecified), the activity change, negative = inhibition was inactive: -1.18%. Consider `CCCC1OP(=O)(Nc2ccccc2)OCC1CC` (stereo unspecified), for which the activity change, negative = inhibition is inactive: 8.21%. Take `O=C(/C=C/c1ccccc1)OC1CN2CCC1CC2` (stereo unspecified): the activity change, negative = inhibition is inactive: 3.34%. In the case of `CN(C)C1(CNC(=O)c2ccc(S(C)(=O)=O)cc2)CCCCC1` it was inactive: -1.32%; in that of `O=P1(Nc2ncccn2)COc2ccccc2OC1`, inactive: 1.35%. In the case of `Cc1ccc(OCC(=O)OC2CN3CCC2CC3)cc1` (stereo unspecified), the activity change, negative = inhibition was inactive: 2.4%. In the case of `O=[As](O)(c1cccs1)c1cccs1` it was inactive: 2.27%. In the case of `NS(=O)(=O)c1cccc(NC(=O)COC(=O)C(O)(c2ccccc2)c2ccccc2)c1` it was inactive: -1.82%; in that of `O=P1(Nc2ccc(Br)cn2)COc2ccccc2OC1`, inactive: -1.42%; in that of `Nc1cccc([As](=O)(O)c2ccccc2)c1`, inactive: -1.96%. In the case of `CC1CCNP(=O)(N(CCCl)CCCl)O1` (stereo unspecified) it was inactive: -1.82%; in that of `Cc1cc(SC(NC(=O)c2ccccc2)C(Cl)(Cl)Cl)nc(C(C)C)n1` (stereo unspecified), inactive: 1.36%; in that of `CCCCOc1ccc(C(=O)NCC2(N3CCCCC3)CCCCC2)cc1OC`, inactive: -0.277%. Take `CCOC(=O)Nc1cccc([As](=O)(O)O)c1`: the activity change, negative = inhibition is inactive: -1.3%. In the case of `O=[N+]([O-])c1ccc(Nc2ccc(Oc3ccc([N+](=O)[O-])cc3[N+](=O)[O-])cc2)c([N+](=O)[O-])c1` it was inactive: -1.8%; in that of `Cc1cc(SC(NC=O)C(Cl)(Cl)Cl)ncn1` (stereo unspecified), inactive: 1.44%; in that of `O=P(Nc1ccccn1)(c1cccc2ccccc12)c1cccc2ccccc12`, inactive: -1.09%. Regarding `COP1(=S)c2c(C)nn(CCC#N)c2N=C(c2ccc(F)cc2)N1C` (stereo unspecified), the activity change, negative = inhibition is inactive: 2.22%. In the case of `O=C(Nc1ccncc1[N+](=O)[O-])c1ccc([N+](=O)[O-])cc1[N+](=O)[O-]` it was inactive: 3.18%; in that of `O=C(COc1ccccc1)OC1CN2CCC1CC2` (stereo unspecified), inactive: 6.34%; in that of `CCOC(=O)c1ccc(NC(=O)C(C)(CCl)SC)cc1` (stereo unspecified), inactive: 2.98%.

On to `O=C(OC1CN2CCC1CC2)c1cccc([N+](=O)[O-])c1` (stereo unspecified), for which the activity change, negative = inhibition was inactive: 3.02%. With `CCC(C)N(CC(C)C)C(=S)SC(NC(C)=O)C(Cl)(Cl)Cl` (stereo unspecified) the figure was inactive: -1.23%; with `Cc1cc(=O)[nH]c(N[N+](=O)[O-])n1`, inactive: 3.55%; with `O=C(OC1CN2CCC1CC2)C12CC3CC(CC(C3)C1)C2` (stereo unspecified), inactive: 1.66%. In the case of `Cc1c2c(nc3ccccc13)SC(C(Cl)Cl)C2` (stereo unspecified), the activity change, negative = inhibition was inactive: -1.95%. With `COc1cc(I)ccc1[As](=O)(O)O` the figure was inactive: -7.49%; with `COc1ccc2nc(NP(=O)(c3ccccc3)c3ccccc3)sc2c1`, inactive: -2.07%. With `O=P1(N(CCCl)CCCl)OCCCN1CCCl` (stereo unspecified) the figure was inactive: 5.16%; with `O=P1(N(CCCl)CCCl)Nc2ccccc2N1`, inactive: 3.28%. For the molecule `COc1ccc(N/C(=N/P(=O)(N2CCOCC2)N2CCOCC2)N2CCOCC2)cc1`, the activity change, negative = inhibition is inactive: -2.05%.

With `O=[N+]([O-])c1cc(Oc2ccc([N+](=O)[O-])cc2C(F)(F)F)cc([N+](=O)[O-])c1`, the activity change, negative = inhibition was inactive: -12.6%. With `O=[N+]([O-])c1ccc(-c2cc([N+](=O)[O-])c(O)c([N+](=O)[O-])c2)cc1`, the activity change, negative = inhibition is inactive: 6.25%. In the case of `COc1cc(C(=O)NCC2(N3CCOCC3)CCCCC2)ccc1OCC(C)C` it was inactive: -1.6%; in that of `C[As](=O)(O)c1cccc(C(=O)O)c1`, inactive: 30.5%. For `O=[As](O)(c1ccc(O)cc1)c1ccccc1O`, the activity change, negative = inhibition was inactive: 0.969%. As to `Cc1ccc2nc3c(c(C)c2c1)CC(C(Cl)Cl)S3` (stereo unspecified), the activity change, negative = inhibition was inactive: -3.88%. With `Cc1ccc(OP(=O)(Nc2ccc([N+](=O)[O-])cn2)Oc2ccc(C)cc2)cc1`, the activity change, negative = inhibition is inactive: -3.56%. `COC(=O)C1(C)COP(=O)(N2CCCCCC2)OC1` (stereo unspecified): the activity change, negative = inhibition is inactive: 0.909%. With `CC(C)c1ccc(OP(=O)(Nc2ccccn2)Oc2ccccc2F)cc1` (stereo unspecified) the figure was inactive: -0.909%; with `ClCCSc1nnc(-c2cccnc2)o1`, inactive: 2.77%; with `O=[N+]([O-])c1cc([N+](=O)[O-])c(-c2ccn[nH]2)s1`, inactive: -7.07%. Turning to `CC(C)NC(=O)NP(=O)(Oc1ccccc1)Oc1ccccc1`, the activity change, negative = inhibition is inactive: 0.395%. With `CCN(CC)C(=S)SC(NC=O)C(Cl)(Cl)Cl` (stereo unspecified), the activity change, negative = inhibition was inactive: -0.186%. Take `O=C(OC1CN2CCC1CC2)c1cccc2[nH]cnc12` (stereo unspecified): the activity change, negative = inhibition was inactive: 1.66%. With `CCCC1OP(N)(=O)OCC1CC` (stereo unspecified) the figure was inactive: 0.995%. With `CC(=O)Nc1ccc([As](=O)(O)O)cc1` the figure was inactive: -3.28%.

`O=C(O)c1ccccc1[As](=O)(O)O`: the activity change, negative = inhibition was inactive: -97%.

On to `O=P(Nc1nc2ccc(Cl)cc2s1)(c1ccccc1)c1ccccc1`, for which the activity change, negative = inhibition is inactive: -2.39%. For the molecule `CN(C(=O)Cc1ccc(Cl)c(Cl)c1)[C@H]1CCCC[C@@H]1N1CCCC1`, the activity change, negative = inhibition is inactive: -0.0262%.

As to `Cc1ccc(NP(=O)(Oc2ccccc2F)Oc2ccccc2F)nc1`, the activity change, negative = inhibition is inactive: 4.67%.

Take `Cc1cc(SC(NC(=O)c2ccc(F)cc2)C(Cl)(Cl)Cl)ncn1` (stereo unspecified): the activity change, negative = inhibition was inactive: 0.0814%. With `CCOP(=O)(Nc1ccccc1)OCC` the figure was inactive: -2.04%; with `CCN(N=Nc1nonc1N)c1nonc1N`, inactive: -6.15%.

`Nc1cccc2ccc([As](=O)(O)O)cc12`: the activity change, negative = inhibition is inactive: 11.9%. `NC(=O)c1cc([N+](=O)[O-])cc([N+](=O)[O-])c1N`: the activity change, negative = inhibition was inactive: -0.14%. In the case of `Cc1ccc(N/C(=N/P(=O)(N2CCOCC2)N2CCOCC2)N2CCOCC2)cc1` it was inactive: -1.91%. Turning to `CN(C(=O)Cc1ccc(Cl)c(Cl)c1)[C@H]1CCCC[C@H]1N1CCCC1`, the activity change, negative = inhibition is inactive: -4.17%. With `Cc1ccc(OP(=O)(Nc2nccs2)Oc2ccc(C)cc2)cc1` the figure was inactive: -2.52%. With `COc1ccccc1OP(=O)(Nc1ccc(C)cn1)Oc1ccccc1OC` the figure was inactive: 11.2%. On to `CN1CCCC(OC(=O)C(c2ccccc2)c2ccccc2)C1` (stereo unspecified), for which the activity change, negative = inhibition was inactive: -2.1%. Turning to `Clc1ccc(Cl)c(NC2=NCC(CBr)S2)c1` (stereo unspecified), the activity change, negative = inhibition is inactive: 0.39%. As for `Nc1cc(N)c2nonc2c1[N+](=O)[O-]`, the activity change, negative = inhibition is inactive: -3.09%.

On to `CC(C)CC(=O)NC(Sc1ccc(Cl)cc1)C(Cl)(Cl)Cl` (stereo unspecified), for which the activity change, negative = inhibition was inactive: -1.42%.

In the case of `O=C(NC(Sc1ccncn1)C(Cl)(Cl)Cl)c1ccccc1` (stereo unspecified), the activity change, negative = inhibition was inactive: 6.01%.

For the molecule `Oc1ccccc1CNc1ccccn1`, the activity change, negative = inhibition is inactive: 4.17%.

Values taken from PubChem BioAssay AID504937 (National Center for Advancing Translational Sciences (NCATS), 2011).
